Protein sequences, listed by entry. Tags and fused reporters are not part of them.
UniProt P21452, whole entry: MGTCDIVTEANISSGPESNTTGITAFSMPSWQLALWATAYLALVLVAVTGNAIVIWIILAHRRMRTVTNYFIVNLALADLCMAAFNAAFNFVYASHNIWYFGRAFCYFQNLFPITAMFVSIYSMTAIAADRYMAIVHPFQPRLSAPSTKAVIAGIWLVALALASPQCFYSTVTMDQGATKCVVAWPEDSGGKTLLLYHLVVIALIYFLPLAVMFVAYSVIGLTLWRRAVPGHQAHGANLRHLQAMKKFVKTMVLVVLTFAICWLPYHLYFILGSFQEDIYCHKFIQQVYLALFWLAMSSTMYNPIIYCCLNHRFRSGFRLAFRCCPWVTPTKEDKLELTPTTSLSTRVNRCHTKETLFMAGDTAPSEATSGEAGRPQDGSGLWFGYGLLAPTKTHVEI
UniProt P25103, whole entry: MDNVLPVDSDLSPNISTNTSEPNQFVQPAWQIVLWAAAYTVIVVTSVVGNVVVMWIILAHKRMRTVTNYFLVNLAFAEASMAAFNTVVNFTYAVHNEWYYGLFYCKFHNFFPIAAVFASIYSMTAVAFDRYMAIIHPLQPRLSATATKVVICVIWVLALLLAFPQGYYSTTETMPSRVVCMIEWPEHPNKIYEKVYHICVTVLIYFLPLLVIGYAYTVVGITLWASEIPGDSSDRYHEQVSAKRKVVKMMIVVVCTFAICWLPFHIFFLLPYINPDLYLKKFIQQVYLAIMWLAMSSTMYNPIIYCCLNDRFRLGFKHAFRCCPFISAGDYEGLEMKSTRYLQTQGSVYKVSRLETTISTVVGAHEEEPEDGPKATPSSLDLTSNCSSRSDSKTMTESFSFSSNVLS
UniProt Q64077, whole entry: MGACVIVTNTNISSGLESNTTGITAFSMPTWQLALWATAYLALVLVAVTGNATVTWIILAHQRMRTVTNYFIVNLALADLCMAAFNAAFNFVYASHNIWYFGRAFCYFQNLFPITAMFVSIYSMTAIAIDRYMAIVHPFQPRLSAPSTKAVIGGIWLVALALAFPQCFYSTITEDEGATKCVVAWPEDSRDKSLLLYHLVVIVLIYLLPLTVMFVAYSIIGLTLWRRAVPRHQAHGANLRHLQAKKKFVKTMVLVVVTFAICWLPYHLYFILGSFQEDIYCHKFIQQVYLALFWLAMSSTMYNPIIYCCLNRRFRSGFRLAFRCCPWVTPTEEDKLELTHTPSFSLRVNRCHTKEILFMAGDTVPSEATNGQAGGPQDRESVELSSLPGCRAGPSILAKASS
UniProt P30547, whole entry: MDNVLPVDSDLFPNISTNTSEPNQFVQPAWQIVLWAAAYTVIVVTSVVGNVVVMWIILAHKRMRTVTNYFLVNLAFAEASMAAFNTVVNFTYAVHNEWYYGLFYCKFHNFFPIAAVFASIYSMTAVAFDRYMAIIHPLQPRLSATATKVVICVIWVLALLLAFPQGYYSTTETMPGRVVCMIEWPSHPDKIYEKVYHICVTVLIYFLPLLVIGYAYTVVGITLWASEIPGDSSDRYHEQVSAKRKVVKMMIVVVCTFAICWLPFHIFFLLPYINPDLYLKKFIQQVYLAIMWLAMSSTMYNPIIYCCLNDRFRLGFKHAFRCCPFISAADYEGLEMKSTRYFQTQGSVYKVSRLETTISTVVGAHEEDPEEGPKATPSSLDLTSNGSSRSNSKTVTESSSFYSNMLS

According to patent US7592344B2, “NK1 and NK2-antagonists and compositions and methods of using the same” (Solvay Pharmaceuticals GmbH, priority 2005, dated 2009):

What was measured:
human NK2 receptor = human NK2 receptor (Homo sapiens, UniProt P21452); assay: Binding power to NK2 receptors in vitro ([3H]-SR 48968 displacement, CHO cell membranes); conditions: human NK2 receptor in CHO membranes, ligand [3H]-SR 48968, 90 min incubation
human NK1 receptor = human NK1 receptor (Homo sapiens, UniProt P25103); assay: Binding power to NK1 receptors in vitro ([3H]-Substance P displacement, CHO cell membranes); conditions: human NK1 receptor in CHO membranes, ligand [3H]-Substance P
NK2 receptors [1] = target: T1, NK2 receptors (Cavia porcellus, UniProt Q64077); assay: NK2-receptor-antagonistic effectiveness in vivo in anesthetized guinea pigs (NKA-induced late hypotension, bronchoconstriction, colonic motility); conditions: guinea pig
NK1 receptors [2] = target: T2, NK1 receptors (Cavia porcellus, UniProt P30547); assay: NK1-receptor-antagonistic effectiveness in vivo in anesthetized guinea pigs (NKA-induced early hypotension); conditions: guinea pig
NK1 receptors [3] = target: T2, NK1 receptors; assay: Functional NK1 antagonism on isolated guinea pig aorta rings (inhibition of Substance P-induced relaxation); conditions: phenylephrine tone, 0.01 μmol Substance P
NK2 receptors [4] = target: T1, NK2 receptors; assay: Functional NK2 antagonism on isolated guinea pig gall-bladder (inhibition of NKA-induced contraction); conditions: NKA 0.1 μmol/l, two hours' incubation, IC50 in mol/l
[5] = i.v., NKA stimulus 1 min after dosing
[6] = oral, AUC 1-180 min after administration

pKi (NK2) (human NK2 receptor)	pKi (NK1) (human NK1 receptor)	ED50 iv after 1 min (cumulative), NK2 (bronchoconstriction) (NK2 receptors [1]; [5]) [µmol/kg]	ED50 iv after 1 min (cumulative), NK2 (colonic motility) (NK2 receptors [1]; [5]) [µmol/kg]	ED50 iv after 1 min (cumulative), NK2 (late hypotension) (NK2 receptors [1]; [5]) [µmol/kg]	oral activity as NK2 receptor antagonist (in words) (NK2 receptors [1]; oral)	ED50 AUC1–180 min oral, NK2 (bronchoconstriction) (NK2 receptors [1]; [6]) [µmol/kg]	ED50 AUC1–180 min oral, NK2 (colonic motility) (NK2 receptors [1]; [6]) [µmol/kg]	ED50 AUC1–180 min oral, NK2 (late hypotension) (NK2 receptors [1]; [6]) [µmol/kg]	ED50 iv after 1 min (cumulative), NK1 (early hypotension) (NK1 receptors [2]; [5]) [µmol/kg]	oral activity as NK1 receptor antagonist (in words) (NK1 receptors [2]; oral)	ED50 AUC1–180 min oral, NK1 (early hypotension) (NK1 receptors [2]; [6]) [µmol/kg]	pEC50 (NK1 receptors [3])	pIC50 (NK2 receptors [4])	Compound
7.2	8.8	–	–	–	–	–	–	–	–	–	–	–	–	CN(C[C@@H](CCN1CCN([C@@H](c2ccco2)[C@H](O)C(O)[C@H](O)CO)CC1)c1ccc(Cl)c(Cl)c1)C(=O)c1cc(C#N)cc2ccccc12 (single isomer, unassigned) [3]
7.1	8.5	<0.010	0.085	0.106	active orally	11.7	6.0	14.8	<0.010	active orally	15.2	9.5	7.7	CN(C[C@@H](CCN1CCN([C@@H](c2ccco2)[C@H](O)C(O)[C@H](O)CO)CC1)c1ccc(Cl)c(Cl)c1)C(=O)c1cc(C#N)cc2ccccc12 (single isomer, unassigned) [2]
